# Reference: patent US20240400635A1
# By UniProt entry, the sequences of proteins in these tests, tags left out. Residues count along the entry.
# UniProt P43220, 24-463: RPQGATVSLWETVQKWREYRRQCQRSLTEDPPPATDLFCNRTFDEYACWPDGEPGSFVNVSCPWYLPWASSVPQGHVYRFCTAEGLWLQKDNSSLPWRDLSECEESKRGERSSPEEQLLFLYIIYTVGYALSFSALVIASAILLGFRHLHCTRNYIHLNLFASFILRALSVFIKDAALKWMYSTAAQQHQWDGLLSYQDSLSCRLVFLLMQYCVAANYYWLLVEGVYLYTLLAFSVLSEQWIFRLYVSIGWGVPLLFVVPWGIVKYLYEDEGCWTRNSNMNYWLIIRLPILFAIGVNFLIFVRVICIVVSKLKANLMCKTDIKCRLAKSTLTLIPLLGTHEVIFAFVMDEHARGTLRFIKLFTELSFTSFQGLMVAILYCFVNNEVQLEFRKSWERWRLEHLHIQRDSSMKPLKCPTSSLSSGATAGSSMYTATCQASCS
# Target: human GLP-1 receptor (human) (UniProt P43220)
# Assay: cell-based or functional assay
substance,measurement,value
"N-epsilon26-[2-(2-[2-(2-[2-(2-[4-(17-Carboxyheptadecanoylamino)-4(S)-carboxybutyrylamino]ethoxy)ethoxy]acetylamino)ethoxy]ethoxy)acetyl][Aib8,Arg34]GLP-1-(7-37)peptide",GLP-1 receptor potency [EC50] pM 0% HSA,5.6 pM
same,GLP-1 receptor potency [EC50] pM 1% HSA,170 pM
